Values of other authors, collected in patent publication US10517933B2, “Method of treating androgen receptor negative prostate tumors and their metastases” (DREXEL UNIVERSITY, priority 2015, dated 2019).

What was measured:
IL1β [1] = molecular target: T1, IL1β (Homo sapiens, UniProt P01584); conditions: cited from earlier work
IL1β [2] = molecular target: T1, IL1β; conditions: cited from earlier work; remark: listed apart in the source

For “XOMA-052: a potent anti-IL1β humanized neutralizing antibody”, the “binding affinity for human IL1β” value (IL1β [1]) is given as 300 femtomolar and the in vitro potency (IL1β [2]) is given as “low picomolar range”.
